What all share (assay type): biochemical
The target in one test is T1, Human factor XIIa (Homo sapiens, UniProt P00748).
T1 sequence (P00748 373-615 limits assumed): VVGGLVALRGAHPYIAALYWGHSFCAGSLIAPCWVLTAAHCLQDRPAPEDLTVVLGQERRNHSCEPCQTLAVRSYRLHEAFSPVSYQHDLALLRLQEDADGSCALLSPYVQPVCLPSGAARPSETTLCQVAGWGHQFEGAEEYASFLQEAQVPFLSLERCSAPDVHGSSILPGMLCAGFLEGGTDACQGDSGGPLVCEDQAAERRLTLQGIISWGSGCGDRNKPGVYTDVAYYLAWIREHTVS
As to the kind of experiment: Target specificity, paralogous protease. The settings on record: Table 4; measure and unit inferred.

The target in the next test is Human thrombin (Homo sapiens, UniProt P00734). As to the kind of experiment: Target specificity, paralogous protease. The settings on record: Tables 3 and 4; unit inferred.
Another test addresses T2, human plasma Kallikrein (Homo sapiens, UniProt P03952).
T2 construct: purchased Stratech, UK
As to the kind of experiment: Functional enzyme inhibition assay, fluorogenic substrate Z-PheArg-AMC. The settings on record: Tables 3 and 4; read-out: Kallikrein Av Ki. On the procedure:
Peptides were dissolved as the TFA-salts in their powder form, and stock solutions were usually prepared in water. All solutions were centrifuged and filtered ([…] syringe filters) prior absorption measurement at 280 nm. […] For peptides containing non-natural amino acids with suspected chromophoric properties (i.e. NorHar, 4PhenylPro, 3PaI, 4PaI, Tic, 4GuanPhe, 4,4-BPAI, 3,3-DPA, 1NAI, 2NAI, 4BenzylPro, Ind) concentrations were determined by weighing the powder and dissolving the peptide in a defined quantity of water.

pIC50, pKi: −log10 of the molar value. A value given as a limit tells only on which side of the number the result lay.

On to ACAWPARCLTTSLCG [Peptide 1E6], for which the negative logarithm of the IC50 (pIC50) against Human factor XIIa and against Human thrombin was below 5.00 throughout.
For ACAWPARCLTVDLCA [Peptide 06-01], the pIC50 against Human factor XIIa and at Human thrombin was below 5.00 each time.
On to ACFPSHDCDGRRMCA [Peptide 06-143], for which the pIC50 against Human factor XIIa and on Human thrombin was below 5.00 in each case.
As for ACGGPQNCRTWTTCA [Peptide 06-56], the pIC50 against Human factor XIIa and against Human thrombin was below 5.00 throughout.
Regarding ACRWPARCVHQDLCA [Peptide 06-34], the pIC50 on Human factor XIIa and against Human thrombin was below 5.00 in each case. At human plasma Kallikrein, the pKi was above 9.52.
